## Antibody variant affinities, Ab-14 light chain, assay 1

The measurements come from Engelhart et al. 2022 (doi:10.1038/s41597-022-01779-4) through the FLAb antibody collection.

Target: peptide PDVDLGDISGINAS, taken from heptad repeat 2 (HR2) of SARS-CoV-2 spike.

Ab-14 is the parent antibody, in scFv form: VH, then a 15-residue (Gly4Ser)3 linker, then VL. The heavy chain is unchanged in all variants.
VH: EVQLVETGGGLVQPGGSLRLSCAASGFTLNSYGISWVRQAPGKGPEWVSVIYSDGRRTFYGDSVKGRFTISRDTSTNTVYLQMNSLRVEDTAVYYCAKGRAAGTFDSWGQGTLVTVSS
VL: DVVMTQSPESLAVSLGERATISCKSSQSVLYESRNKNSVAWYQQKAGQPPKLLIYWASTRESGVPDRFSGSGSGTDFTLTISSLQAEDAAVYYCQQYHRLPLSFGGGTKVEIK

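The parent was found by panning a naive human phage display library on the peptide. AAYL50 was designed without a model: most single CDR substitutions and a random sample of double and triple ones. The assay is AlphaSeq: two haploid yeast populations carry antibody and antigen on their surface. Pairs that bind mate more often; barcode pairs of the diploids are counted by sequencing. Each replicate has its own calibration line, from reference interactions of the BCL2 family. The assay was run in three technical replicates.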

Variants are written as CDR1, CDR2 and CDR3 of the light chain (limits as in the source). Parent: KSSQSVLYESRNKNSVA, WASTRES, QQYHRLPLS. Affinities are written as log10 Kd with Kd in nM; a lower number is a better binder. A mean of the replicates is given; it leaves out those without a signal. "ND" marks a missing value. The strain was present, yet no cells mated with the target were sequenced in that replicate, which points to weak or no binding. Three control strains display no target. For library AAYL50, 18% of the pairings with them gave a signal, with a median of 4.19 and one signal in twenty below 2.99, so weak values seen in few replicates may be background. For each scFv, signals with the empty controls are counted beside the result, with their mean in brackets.

CDR-L1	CDR-L2	CDR-L3	replicates, log10 nM	mean log10 Kd (nM)	control signals
KSSQWVLYESRNKNSVG	WASTRES	QQYHRLPLS	ND ND ND	ND	3/9 (3.77)
KSSQSVLYESRNKNFVQ	WASTRES	QIYHRLPLS	ND ND ND	ND	0/9
KSSQSVLYESRNKDSVA	WASTRES	QQYHRLPLS	0.76 1.07 0.91	0.91	0/9
LSSQSVLYESRNKNSCA	WASTRES	QQYHRLLLS	ND ND ND	ND	0/9
ESCQSVLYESRNKNSVA	WASTYES	QQYHRLPLS	ND 3.82 ND	3.82	0/9
KSSQSVLYLSRNKCSVT	WASTRES	QQYHRLPLS	ND ND ND	ND	1/9 (3.86)
KSSQSVCYESRNKNSVA	WASTRED	QQYHWLPLS	1.35 1.44 1.79	1.53	3/9 (3.61)
KSSQFVLYESRNKNSVA	WASSRES	QQYHRKPLS	3.00 2.72 3.45	3.06	3/9 (3.90)
KSSQSVLYQSRHKNSVA	WQSTRES	QQYHRLPLS	2.69 3.14 ND	2.92	3/9 (4.13)
KSSQSVLYESINKNSVM	KASTRES	QQYHRLPLS	3.92 4.36 ND	4.14	6/9 (4.22)
KSSQGVLYESRNKNSVW	WASTRES	QQYHRLPLS	ND ND ND	ND	3/9 (4.03)
KSSQYFLYESFNKNSVA	WASTRES	QQYHRLPLS	1.52 1.51 1.45	1.49	0/9
KSSQSVLYESFSKNSVI	WASTRES	QQYHRLPLS	ND ND ND	ND	0/9
KSSISVKYISRNKNSVA	WASTRES	QQYHRLPLS	1.99 1.80 1.19	1.66	0/9
KSSQSSLYESRNKNSVA	WASTRES	VQYHLLPLS	ND 3.97 4.14	4.06	3/9 (4.48)
KSSQSVLYESRNKNLVA	WASTRET	QQYHRLCLS	ND 3.93 ND	3.93	3/9 (4.27)
KSSQSVLYESDNKNSVA	FASTREA	QQYHRLPLS	1.92 1.99 2.30	2.07	2/9 (4.48)
KSSQSVLYESRSKNSVI	WASTRES	QGYHRLPLS	ND ND ND	ND	0/9
KSVQMVLYESRNKNSVA	WASWRES	QQYHRLPLS	ND ND ND	ND	0/9
ISSQSVLYESRNKQSVA	WASTRES	QQYHRLPLS	2.34 2.56 2.60	2.50	0/9
KSSQSVLPESRNKNSVA	WASTRES	QQYNALPLS	0.74 0.95 0.94	0.88	4/9 (4.67)
KSSQSVLYESRNKNYVA	WASTVEM	QQYHRLPLS	ND 5.23 ND	5.23	2/9 (3.59)
NSSQSVLLESRNKNSVA	WASTRES	QQYHRLPLS	0.60 0.90 0.78	0.76	2/9 (3.88)
KSPQSVLGESMNKNSVA	WASTRES	QQYHRLPLS	0.63 0.92 0.67	0.74	0/9
KSSQSVLYESRNKNSNA	WASTYES	QQYHRLGLS	ND ND ND	ND	1/9 (3.83)
KSSQEVLYESRNTNSVA	WASTRFS	QQYHRLPLS	0.72 0.85 0.77	0.78	3/9 (4.77)
KSSQSVLYESTNKNEVQ	WASTRES	QQYHRLPLS	ND ND ND	ND	1/9 (3.95)
KSSQSVCYESRNKNSVA	WASTRES	QQYHRLPLS	1.17 1.28 1.39	1.28	2/9 (4.70)
DSSQSVLYESRNKNSVA	WASTRES	QFYHRLPYS	4.12 4.07 5.50	4.56	5/9 (4.46)
KSSQSVLYEKRNKNSVA	WASTRES	QQYHRLPLW	1.02 1.31 1.29	1.21	2/9 (4.93)
QSSQSVLYESRLKNSVA	WVSTRES	QQYHRLPLS	3.26 2.56 2.77	2.87	0/9
KSSQSVLYESRNYNSVA	WASTRES	QQYHRLPLS	1.31 1.36 1.43	1.37	3/9 (5.51)
KSSQYVLYESRNKNSVA	WASTRES	QQYHRLPLV	2.55 2.46 2.19	2.40	3/9 (4.23)
NSWQSVLYESRNKNKVA	WASTRES	QQYHRLPLS	ND ND ND	ND	0/9
KSSQSDLYESRNKNSVA	WAQTMES	QQYHRLPLS	5.25 4.09 ND	4.67	1/9 (4.02)
KSQQSVLYESRNLNWVA	WASTRES	QQYHRLPLS	ND ND ND	ND	1/9 (4.14)
KNSQSVLYESRNKNPVA	WASTREL	QQYHRLPLS	2.92 ND 3.32	3.12	2/9 (4.68)

Picked from the list: the 3 lowest averages where every replicate gave a value.

{"CDR-L1": "KSPQSVLGESMNKNSVA", "CDR-L2": "WASTRES", "CDR-L3": "QQYHRLPLS", "replicates, log10 nM": "0.63 0.92 0.67", "mean log10 Kd (nM)": "0.74", "control signals": "0/9"}
{"CDR-L1": "NSSQSVLLESRNKNSVA", "CDR-L2": "WASTRES", "CDR-L3": "QQYHRLPLS", "replicates, log10 nM": "0.60 0.90 0.78", "mean log10 Kd (nM)": "0.76", "control signals": "2/9 (3.88)"}
{"CDR-L1": "KSSQEVLYESRNTNSVA", "CDR-L2": "WASTRFS", "CDR-L3": "QQYHRLPLS", "replicates, log10 nM": "0.72 0.85 0.77", "mean log10 Kd (nM)": "0.78", "control signals": "3/9 (4.77)"}